Results: patent US20210283217A1, “NEUROMODULATING COMPOSITIONS AND RELATED THERAPEUTIC METHODS FOR THE TREATMENT OF INFLAMMATORY AND AUTOIMMUNE DISEASES” (Flagship Pioneering Innovations V, Inc., priority 2016, published 2021)

Tested on: macrophages
Test: Macrophage activation and cytokine secretion assay (M1/M2 polarization)
Format: cell-based, human
Method: Peripheral blood mononuclear cells (PBMCs) were isolated from whole blood by ficoll density separation. Briefly, blood was diluted 1:2 with 0.5 mM EDTA solution in PBS, loaded onto a Ficoll-filled Leucosep tube (Greiner Bio-One), and centrifuged for 20 minutes at 1000×g. After centrifugation, the leukocyte/PBMC layer was collected and sequentially washed three times with 0.5 mM EDTA solution in PBS.
Monocytes (CD14+) were isolated from PBMCs using magnetic bead-based separation following vendor specifications, e.g., Biolegend MojoSort Human CD14 Selection Kit protocol. In brief, PBMCs were labeled with biotinylated antibodies against cell surface receptors for cells not in the population of interest. The labeled cells are then captured by streptavidin-coated magnetic beads and removed by magnetic incubation. […]
Supernatants were collected at 24, 48, and 72 hrs and cytokine secretion was analyzed by flow cytometry using a LEGENDplex assay (BioLegend). […] The beads were then stained and the captured cytokine composition assessed by flow cytometry.
M1 macrophage polarization is defined as increase in production of IL-12, TNF, IL-6, IL-8, IL-1B, MCP-1 and CCL2. Additionally, markers of M1 polarization that can be detected by RNA include Nos2. […] Additionally, markers of M2 polarization that can be detected by RNA include Arg1, IDO, PF4, CCL24, IL10, and IL4Ralpha.

In the case of “CGRP (ACDTATCVTHRLAGLLSRSGGVVKNNFVPTNVGSKAF; Calcitonin gene-related peptide 1; UniProt P06881 83-119, looked up) [neuropeptide CGRP]”, the “macrophage secretion of TNFα” value (M1 marker) was “increased” and the macrophage polarization phenotype (monocyte-derived macrophages, dilutions from 10 μM to 1 nM) was “polarized toward an M1 phenotype”.
